Assay results published in article PMC10610424, “Enhancing Solubility and Dissolution Rate of Antifungal Drug Ketoconazole through Crystal Engineering” (Pharmaceuticals, 2023).

Test: Equilibrium solubility, shake flask method, HPLC of KTZ
Format: physicochemical
Conditions: for Equilibrium solubility, concentration of KTZ: 37.0 °C, 48 h, mean ± SD, triplicate
Description: The solutions were stirred at 160 strokes min^−1 with a magnetic bar at 37 °C for 48 h to reach equilibrium. The suspension was filtered through a 0.22 μm nylon filter membrane, diluted appropriately, and analyzed by subsequent high-performance liquid chromatography (HPLC) analysis. […] An Agilent Eclipse XDB−C18 (250 mm × 4.6 mm, 5 μm) column was used throughout the process of elution with the column temperature set to 30 °C. The mobile phase, consisting of methanol and water (80/20, v/v), was run at 1.0 mL min^−1 with a detection wavelength of 254 nm. The injection sample volume was 10 μL. The measurements were performed based on an external standard method. All the solubility experiments were performed in triplicate and the results are expressed as the mean value ± standard deviation (SD). Residual solids were collected after the equilibrium solubility experiment and characterized by PXRD for solid-form stability examinations.

CC(=O)N1CCN(c2ccc(OCC3COC(Cn4ccnc4)(c4ccc(Cl)cc4Cl)O3)cc2)CC1.COc1cc(C(=O)O)ccc1O (racemic) [KTZ−VNA]
Solubility of ketoconazole in distilled water (distilled water (abstract)): 321.6 µg/mL | Equilibrium solubility, concentration of KTZ (pH 4.5 acetate buffer): 365.44 ± 51.10 µg/mL | Equilibrium solubility, concentration of KTZ (ultrapure water): 321.57 ± 10.03 µg/mL
